According to ChEMBL document CHEMBL6083283, “Discovery of Dual CDK6/BRD4 Inhibitor Inducing Apoptosis and Increasing the Sensitivity of Ferroptosis in Triple-Negative Breast Cancer” (J Med Chem, 2024):
The source made the active and inactive calls. The rule behind the calls is not given here.

Protein sequences, listed by entry. Tags and fused reporters are not part of them.
UniProt Q00534, whole entry: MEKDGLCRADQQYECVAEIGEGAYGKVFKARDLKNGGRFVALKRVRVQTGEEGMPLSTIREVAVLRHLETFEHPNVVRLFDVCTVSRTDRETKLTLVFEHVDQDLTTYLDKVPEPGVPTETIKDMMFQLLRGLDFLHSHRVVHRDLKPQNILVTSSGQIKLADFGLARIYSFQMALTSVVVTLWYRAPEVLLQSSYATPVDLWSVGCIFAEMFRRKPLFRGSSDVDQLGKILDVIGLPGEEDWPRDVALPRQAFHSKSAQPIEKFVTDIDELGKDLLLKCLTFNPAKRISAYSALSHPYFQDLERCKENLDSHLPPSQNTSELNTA

Molecular target: Cyclin-dependent kinase 6 (Homo sapiens) (UniProt Q00534)
Assay: Thermal stabilization of CDK6 in human MDA-MB-231 cells 2 uM at 38 to 58 degreeC by CETSA analysis
Assay type: cell-based

Activity: Active
SMILES: COc1cc(OC)c2c(=O)[nH]c(-c3ccc(C(=O)N4CC5(CCN(c6ncc7c(C)cc(=O)n(C8CCCC8)c7n6)CC5)C4)cc3)nc2c1
